According to patent US20010001713A1, “Composition and method for measuring the foliar uptake of agrochemicals” (priority 1999, published 2001):

Tested on: rice plants
Conditions: in vivo

lauryl alcohol ethoxylate [lauryl alcohol ethoxylate(S)]
Recovery (%) of tricyclazole: 68.7%
